From patent publication US6969760B2, “Jak kinases and regulation of cytokine signal transduction” (St. Jude Children's Research Hospital, priority 1993, dated 2005)

Test system: Jak3 and Jak1
Experiment: IL-2/IL-4-induced tyrosine phosphorylation of Jaks in CTLL cells
Assay type: cell-based, murine
Method: IL-2 and IL-4 stimulation of Jak1 and Jak3 tyrosine phosphorylation and activation of Jak3 in vitro kinase activity. FIG. 9A: CTLL cells were deprived of growth factors for 14 hr and were either left unstimulated (lanes 1, 4, 7 and 10), were stimulated with 100 U/ml with IL-2 (Cetus) for 10 min (lanes 2,5,8 and 11) or were stimulated with 100 ng/ml of IL-4 (R&D) for 10 min (lanes 3, 6, 9 and 12). Extracts were prepared as previously described (Witthuhn et al., Cell: 227-236 (1993)) and used for immunoprecipitation with the indicated antisera. The immunoprecipitates were resolved by SDS-PAGE, electrophoretically transferred to nitrocellulose and the membranes were probed with the 4G10 monoclonal antibody (UBI) against phosphotyrosine. FIG. 9B: CTLL cells were deprived of growth factors for 14 hr and were either unstimulated (lane 1), stimulated with IL-2 (lane 2) or stimulated with IL-4 (lane 3) as above. Extracts were prepared and used for immunoprecipitation with the Jak3/Jak1 cross-reactive antipeptide antiserum against Tyk2. […]
To assess the role of Jak3 in signalling, the ability of several cytokines to induce Jak3 tyrosine phosphorylation was examined by immunoprecipitation and western blotting with a monoclonal antibody against phosphotyrosine. […] No tyrosine phosphorylation of Jak2 or Tyk2 was detected with Jak2 or Tyk2 specific antiserum.

IL-2: IL-2 (Cetus), cytokine was tested, and the “onset of phosphorylation of the Jaks following stimulation” value was “detectable within one minute”.
